Results published in PubChem BioAssay AID1671463 (Sanford-Burnham Center for Chemical Genomics, 2021).
Only a part is listed here, and it is no random draw. Active and inactive are the calls of the source. No stated cut-off is given here; in the data, active means activation above about 40%; inactive means the rest.

Protein sequences, listed by entry. Tags and fused reporters are not part of them.
UniProt P16066, whole entry: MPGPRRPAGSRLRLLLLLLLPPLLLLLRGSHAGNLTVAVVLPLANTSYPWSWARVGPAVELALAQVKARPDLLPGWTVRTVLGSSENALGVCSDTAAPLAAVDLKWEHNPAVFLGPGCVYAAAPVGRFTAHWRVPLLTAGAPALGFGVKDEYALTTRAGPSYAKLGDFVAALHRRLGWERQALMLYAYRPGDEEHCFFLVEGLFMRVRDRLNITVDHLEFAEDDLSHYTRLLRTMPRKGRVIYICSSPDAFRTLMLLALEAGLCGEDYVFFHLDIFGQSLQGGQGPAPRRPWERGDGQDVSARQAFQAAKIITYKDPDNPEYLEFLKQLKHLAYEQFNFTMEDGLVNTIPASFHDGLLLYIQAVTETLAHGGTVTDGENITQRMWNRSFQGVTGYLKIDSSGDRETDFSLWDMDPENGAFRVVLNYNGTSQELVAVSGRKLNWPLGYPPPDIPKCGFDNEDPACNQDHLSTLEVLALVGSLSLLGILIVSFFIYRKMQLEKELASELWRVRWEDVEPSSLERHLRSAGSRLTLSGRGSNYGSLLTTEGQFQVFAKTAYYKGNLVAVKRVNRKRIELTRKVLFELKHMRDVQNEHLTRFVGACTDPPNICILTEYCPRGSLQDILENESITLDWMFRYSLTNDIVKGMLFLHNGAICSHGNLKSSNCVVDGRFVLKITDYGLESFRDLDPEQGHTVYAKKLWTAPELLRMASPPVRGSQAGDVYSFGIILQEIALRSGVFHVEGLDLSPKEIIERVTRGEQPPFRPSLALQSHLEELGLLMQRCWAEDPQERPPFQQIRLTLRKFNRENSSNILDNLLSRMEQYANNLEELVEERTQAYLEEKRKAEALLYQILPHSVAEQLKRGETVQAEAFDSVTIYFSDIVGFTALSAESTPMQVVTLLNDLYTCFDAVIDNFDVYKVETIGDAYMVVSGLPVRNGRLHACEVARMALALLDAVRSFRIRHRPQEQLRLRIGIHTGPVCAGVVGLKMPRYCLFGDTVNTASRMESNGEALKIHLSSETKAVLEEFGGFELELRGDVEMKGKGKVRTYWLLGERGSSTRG

What follows are compounds tested against Atrial natriuretic peptide receptor 1 (Homo sapiens) (UniProt P16066) (assay: GC-A stimulated cGMP production enhancers – HEK293 GC-A cells, cGMP TR-FRET, EC30 ANP, primary screen (AID 1671463)). Settings: at 10 µM, active compounds read high, 0% at EC30 ANP, 100% saturating ANP.
In the case of CCC(=O)N(c1ccccc1)C1(COC)CCN(CCc2cccs2)CC1, the activation was inactive: -2.55%. With CCC(=O)N(c1ccccc1)C1(COC)CCN(CCn2nnn(CC)c2=O)CC1 the activation was inactive: 5.47%.
